# Results from PMC11374718, “Unlocking opioid neuropeptide dynamics with genetically encoded biosensors” (Nature Neuroscience, 2024).
# Chains of the proteins cited; added tags and fusions are not shown. A line that says so, or that is headed by a name, gives the form on record, which may keep a tag or linker. Residues count along the entry.
# UniProt P35372, whole entry V175Q, looked up: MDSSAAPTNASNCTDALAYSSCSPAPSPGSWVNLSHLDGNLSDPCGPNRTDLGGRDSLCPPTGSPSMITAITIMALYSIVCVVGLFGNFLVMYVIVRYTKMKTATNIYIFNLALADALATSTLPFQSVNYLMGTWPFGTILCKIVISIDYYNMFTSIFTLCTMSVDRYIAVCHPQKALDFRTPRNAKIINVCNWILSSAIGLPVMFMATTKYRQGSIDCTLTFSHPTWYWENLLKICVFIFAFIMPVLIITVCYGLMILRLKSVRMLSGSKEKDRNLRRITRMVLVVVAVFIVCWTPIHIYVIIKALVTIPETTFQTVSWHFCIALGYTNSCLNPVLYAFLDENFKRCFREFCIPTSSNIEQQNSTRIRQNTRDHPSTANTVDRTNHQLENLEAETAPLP
# UniProt P41143, 1-372 with tags or gaps with the stated changes: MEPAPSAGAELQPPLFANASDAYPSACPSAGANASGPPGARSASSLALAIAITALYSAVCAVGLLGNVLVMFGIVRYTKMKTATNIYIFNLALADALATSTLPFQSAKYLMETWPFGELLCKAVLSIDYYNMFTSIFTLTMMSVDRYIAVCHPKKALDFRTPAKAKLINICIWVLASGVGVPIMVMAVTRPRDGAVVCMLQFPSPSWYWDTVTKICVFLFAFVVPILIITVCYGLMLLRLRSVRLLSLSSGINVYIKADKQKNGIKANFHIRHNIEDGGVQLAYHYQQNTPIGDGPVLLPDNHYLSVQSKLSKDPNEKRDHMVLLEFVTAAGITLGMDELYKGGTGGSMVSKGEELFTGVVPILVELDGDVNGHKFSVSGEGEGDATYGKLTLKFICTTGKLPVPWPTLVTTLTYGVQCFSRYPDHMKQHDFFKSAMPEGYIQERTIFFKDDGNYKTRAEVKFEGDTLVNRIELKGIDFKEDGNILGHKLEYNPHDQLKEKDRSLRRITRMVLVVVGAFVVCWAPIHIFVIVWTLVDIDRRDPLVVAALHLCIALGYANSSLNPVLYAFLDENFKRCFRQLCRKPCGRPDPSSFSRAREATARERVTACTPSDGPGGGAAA
# Key:
# µLight = µLight (Homo sapiens, UniProt P35372, V175Q); experiment: [3H]diprenorphine displacement binding, µLight cell membranes
# δLight = δLight (Homo sapiens, UniProt P41143); experiment: in situ titration, fluorescence ΔF/F in δLight stable HEK293T cells; assay type: cell-based; details: compound 10 nM; normalized to ME; n = 4 wells; ± s.e.m.
structure (smiles),measurement,setting,value
CSCC[C@H](NC(=O)[C@H](Cc1ccccc1)NC(=O)CNC(=O)CNC(=O)[C@@H](N)Cc1ccc(O)cc1)C(=O)N[C@@H](CCCNC(=N)N)C(=O)N[C@@H](CCCNC(=N)N)C(=O)N[C@H](C(N)=O)C(C)C,order of magnitude of IC50 at µLight,µLight,µM IC50
same,Normalized ΔF/F of δLight,δLight,0.07 ± 0.02
